Earlier results as cited in patent publication US6057161A (priority 1997, dated 2000).

**Q.** For CC(=O)Oc1ccc2c3c1O[C@H]1[C@@H](OC(C)=O)C=C[C@H]4[C@@H](C2)N(C)CC[C@@]341, which “time found in the urine after administration of heroin” value is on record?
**A.** up to 40 hours
